{
  "source": "patent US20160252494A1",
  "about": "“MICROSCALE MICROPATTERNED ENGINEERED IN VITRO TISSUE” (priority 2005, published 2016)",
  "test_system": "micropatterned human co-cultures (primary human hepatocytes with 3T3-J2 fibroblasts)",
  "conditions": "24 hour exposure at 400 μM, MTT",
  "protocol": "Cultures were incubated with various concentrations of compounds dissolved in culture medium for 24 hours (acute toxicity) or extended time periods (chronic toxicity, 1-4 days). Cell viability was subsequently measured via the MTT (3-(4,5-dimethylthiazol-2-yl)-2,5-diphenyl tetrazolium bromide; Sigma) assay, which involves cleavage of the tetrazolium ring by mitochondrial dehydrogenase enzymes to form a purple precipitate. MTT was added to cells in DMEM without phenol red at a concentration of 0.5 mg/mL. After an incubation time of 1 hour, the purple precipitate was dissolved in a 1:1 solution of DMSO and Isopropanol. The absorbance of the solution was measured at 570 nm (SpectraMax spectrophotometer, Molecular Devices, Sunnyvale, Calif.).\nUse of optimized micropatterned human co-cultures to evaluate metabolism and toxicity of xenobiotics. […] Acute toxicity tests involved incubating eight day old co-cultures for 24 hrs with various drugs, some with known clinical hepatotoxic potential. After the incubation time period, the cell culture medium was aspirated and a viability assay was conducted (MTT assay—commercially available). […]\nTo assess utility of the microscale human liver tissue for toxicity assays, the acute and chronic toxicity of model hepatotoxins were quantified. […]",
  "data": [
    {"molecule": "CN(CCOc1ccc(CC2SC(=O)NC2=O)cc1)c1ccccn1", "note": "(stereo not shown) [rosiglitazone]", "values": [
      {"measurement": "Relative toxicity of compounds in the same class (PPAR-gamma agonists)", "result": "corresponded to clinical reports"}
    ]}
  ]
}
